Reference: PubChem BioAssay AID488839 (Broad Institute, 2010)
The entries are a selection whose mix differs from that of the whole data set. Some salts and complexes are drawn in separate pieces, as the source files them; their charges need not balance. Active and inactive are the calls of the source.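 The calls were made as follows: active = highest replicate inhibition of at least 50% and at least 75% of replicates reaching 50%; inconclusive = only one of the two criteria met; inactive = both criteria failed.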

Chains of the proteins cited; added tags and fusions are not shown.
UniProt Q00535, whole entry, looked up: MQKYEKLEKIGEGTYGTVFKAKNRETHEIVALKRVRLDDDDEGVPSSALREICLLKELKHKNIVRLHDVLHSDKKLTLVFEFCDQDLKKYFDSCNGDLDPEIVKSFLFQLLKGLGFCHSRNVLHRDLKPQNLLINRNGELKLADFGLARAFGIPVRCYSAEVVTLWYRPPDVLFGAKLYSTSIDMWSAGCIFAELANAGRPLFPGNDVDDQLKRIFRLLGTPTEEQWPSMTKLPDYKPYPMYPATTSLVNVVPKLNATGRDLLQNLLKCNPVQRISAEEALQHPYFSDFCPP
UniProt Q15078, whole entry, looked up: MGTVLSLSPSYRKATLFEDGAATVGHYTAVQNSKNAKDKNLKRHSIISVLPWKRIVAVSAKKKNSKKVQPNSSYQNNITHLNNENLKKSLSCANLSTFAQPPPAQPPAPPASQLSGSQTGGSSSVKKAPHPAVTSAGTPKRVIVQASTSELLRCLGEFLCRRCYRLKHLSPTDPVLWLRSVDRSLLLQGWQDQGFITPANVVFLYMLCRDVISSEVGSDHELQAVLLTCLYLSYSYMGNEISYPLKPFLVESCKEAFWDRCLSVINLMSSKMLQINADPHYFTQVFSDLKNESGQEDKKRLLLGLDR

target: Cyclin-dependent kinase 5 (Homo sapiens) + Cyclin-dependent kinase 5 activator 1 (Homo sapiens) (UniProt Q00535+Q15078); test: inhibitors of human CDK5/p35 kinase, primary screen, biochemical, single concentration (AID 488839); conditions: Recombinant CDK5/p35, ADP-Glo luminescence, 60 min; at 10 µM; stronger effect = higher value;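 also: plate controls were DMSO neutral control for no effect and GW8510 at 10 µM for full effect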

| SMILES | inhibition |
| --- | --- |
| COc1ccccc1OP(C)(=O)Nc1ccc(C)c(C)c1 (configuration not stated) | inactive: 2.23% |
| O=[N+]([O-])c1cc([N+](=O)[O-])c(Nc2ccccn2)c([N+](=O)[O-])c1 | inactive: -0.209% |
| Cc1c(NP(C)(=O)Oc2ccc(C(C)C)cc2)c(=O)n(-c2ccccc2)n1C (configuration not stated) | inactive: 0.678% |
| CCc1ccc(OP(C)(=O)O)cc1 | inactive: -0.765% |
| CP(=O)(Nc1ccccn1)Oc1ccccc1 (configuration not stated) | inactive: -0.93% |
| COc1ccccc1OP(C)(=O)Nc1ccc(C)cc1C (configuration not stated) | inactive: 0.572% |
| COc1ccccc1OP(C)(=O)Nc1ccc(Br)cc1 (configuration not stated) | inactive: -0.923% |
| CN(C)CCOC(=O)C(O)(c1ccccc1)C1CCCC1 (configuration not stated) | inactive: -1.02% |
| COc1ccc(OP(C)(=O)Nc2ccccn2)cc1 (configuration not stated) | inactive: 2.44% |
| O=C(OCCN1CCN(CCOCc2ccccc2)CC1)C(O)(c1ccccc1)c1ccccc1 | inactive: 0.31% |
| O=C(OC1CN2CCC1CC2)c1ccc([N+](=O)[O-])cc1 (configuration not stated) | inactive: -1.04% |
| COc1ccc2c(c1O)-c1c(O)c(OC)cc3c1[C@H](C2)[N+](C)(C)CC3.O=[N+]([O-])c1cc([N+](=O)[O-])c([O-])c([N+](=O)[O-])c1[O-] | inactive: -0.196% |
| CC(C)c1ccc(OP(C)(=O)Nc2ccc(SC(F)(F)F)cc2)cc1 (configuration not stated) | inactive: -0.519% |
| CP(=O)(Nc1ccccc1F)Oc1ccccc1 (configuration not stated) | inactive: 0.328% |
| CCN(CC)CCCOC(=O)C(O)(c1ccccc1)C1CCCCC1 (configuration not stated) | inactive: 0.431% |
| Cc1c([N+](=O)[O-])cc([N+](=O)[O-])c(Br)c1[N+](=O)[O-] | inactive: -7.78% |

| SMILES | inhibition |
| --- | --- |
| CCCCCOc1ccc(NP(C)(=O)Oc2ccc(Cl)cc2Cl)cc1 (configuration not stated) | inactive: 0.526% |
| O=[N+]([O-])c1cc([N+](=O)[O-])c(OC2CCCCC2O)c([N+](=O)[O-])c1 (configuration not stated) | inactive: -5.13% |
| CP(=O)(Nc1ccccc1)Oc1ccc(F)cc1 (configuration not stated) | inactive: -1.17% |
| COc1ccc(OP(C)(=O)Nc2ccc(SC(F)(F)F)cc2)cc1 (configuration not stated) | inactive: -2.49% |
| CCOC(=O)c1ccc(NP(C)(=O)Oc2ccc(F)cc2)cc1 (configuration not stated) | inactive: 0.627% |
| Cc1cc(-c2cccc3ccccc23)c(C)cn1.O=[N+]([O-])c1cc([N+](=O)[O-])c(O)c([N+](=O)[O-])c1 | inactive: -0.164% |
| O=[N+]([O-])c1cc([N+](=O)[O-])c(NCC2CCS(=O)(=O)C2)c([N+](=O)[O-])c1 (configuration not stated) | inactive: -0.987% |
| O=[N+]([O-])c1ccc(OP2(=O)COCCO2)cc1 (configuration not stated) | inactive: 0.145% |
| Cc1c(C(c2ccc3c(c2)OCO3)c2c(C)n(C)n(-c3ccccc3)c2=O)c(=O)n(-c2ccccc2)n1C.O=[N+]([O-])c1cc([N+](=O)[O-])c(O)c([N+](=O)[O-])c1 | inactive: -7.19% |
| COc1ccc(OP(C)(=O)Nc2cccc(Br)c2)cc1 (configuration not stated) | inactive: -0.769% |
| COc1ccc(NP(C)(=O)Oc2ccccc2OC)cc1 (configuration not stated) | inactive: -0.582% |
| CN(C)CCOC(=O)C(O)(c1ccccc1)C1CCCCC1 (configuration not stated) | inactive: 0.00694% |
| CP(=O)(Nc1ccc2c(c1)OCCO2)Oc1ccccc1 (configuration not stated) | inactive: 0.106% |
| Cc1ccccc1NP(C)(=O)Nc1ccccc1C | inactive: 1.14% |
| CP(=O)(Nc1ccc(SC(F)(F)F)cc1)Oc1ccc(F)cc1 (configuration not stated) | inactive: 1.15% |
| CCOP(C)(=S)SCC(=O)NC(C)(CC)C(=O)O (configuration not stated) | inactive: 0.847% |
